# Values quoted from earlier work, collected in US4795627A.
# System: high affinity transport system for choline
# Settings: in vivo
structure (smiles),measurement,setting,value
C[N+]1(C)CCOC(O)(c2ccc(-c3ccc(C4(O)C[N+](C)(C)CCO4)cc3)cc2)C1 (centres unmarked),Duration / reversibility of effect,,"short-lived, and is reversible"
same,Inhibition of high affinity transport system for choline,treated animals,Potent inhibition
